What all share (type): cell-based
For experiment [1], the system named is BT474-M3 cells. Kind of experiment: Apoptosis assay (Annexin V / PI, FACS) in spheroids. The note with it: 72 hours, MM-111 100 nM, lapatinib 33 nM, Annexin V and PI positive. As to the method: After overnight incubation, spheroids are treated with inhibitor at concentrations indicated for 72 hours. Spheroids are then trypsinized and combined with floating cells. Cells are washed twice with cold PBS and suspended in binding buffer (0.01 M HEPES, pH 7.4; 0.14 M NaCl; 2.5 mM CaCl2). Cells are then stained with FITC-conjugated Annexin V and PI. Apoptotic cells are quantified on a FACSCalibur™ FACS machine.
The effect of the MM-111 combination with lapatinib on apoptosis was assessed in a BT474-M3 spheroid model. […] Cells were then stained with Annexin V and propidium iodide (PI) and quantitated using FACS (FIG. 11, Table 2). Cell populations staining positive with Annexin V and PI were quantified as late apoptotic, cell populations staining positive with Annexin V but not PI were quantified as early apoptotic, cell populations staining positive for PI but not Annexin V were quantified as dead cells and populations of cells not stained with either Annexin V or PI were considered alive and not apoptotic (Table 2).

In experiment [2] the test system is BT474-M3 cells. Nature of the experiment: Spheroid in vitro tumor model assay, estrogen-stimulated. The note with it: estrogen-stimulated BT474-M3 spheroids, dose range, six days. The source says:
Cells are continued to culture for six days.
Multicellular spheroids are used to simulate the growth and microenvironmental conditions of tumors in vitro.

The subject of experiment [3] is BT474-M3 cells. Nature of the experiment: Spheroid in vitro tumor model assay, heregulin-stimulated. The note with it: heregulin-stimulated BT474-M3 spheroids, dose range.
The test system of experiment [4] is BT474-M3 cells. Nature of the experiment: Spheroid in vitro tumor model assay, dual ligand (estrogen and heregulin)-stimulated. The note with it: estrogen and heregulin (dual ligand)-stimulated BT474-M3 spheroids, dose range.

Entries after “also recorded” stand apart in the source; their conditions may differ.

For `CS(=O)(=O)CCNCc1ccc(-c2ccc3ncnc(Nc4ccc(OCc5cccc(F)c5)c(Cl)c4)c3c2)o1` [lapatinib], in the experiment on BT474-M3 cells [1], the “Percent cell population: Late apoptosis” value amounted to 14.5%.
On to trastuzumab, for which the “inhibition of spheroid growth (in words)” value was “showed inhibitory effects on spheroid growth” with BT474-M3 cells [2], “did not inhibit heregulin stimulated spheroid growth” in the experiment on BT474-M3 cells [3], “inhibited spheroid growth; also recorded: no significant inhibitory effects” with BT474-M3 cells [4] and “no significant inhibitory effects” in the experiment with BT474-M3 cells [4] (listed as Trastuzumab).

(Values after patent publication US20140056898A1, “COMBINATION THERAPIES COMPRISING ANTI-ERBB3 AGENTS” (priority 2011, published 2014).)
